This experiment concerns the target PARP1 (Homo sapiens, UniProt P09874, L713F).

Chains of the proteins cited; added tags and fusions are not shown. Residues count along the entry.
UniProt P09874, 2-1014 L713F: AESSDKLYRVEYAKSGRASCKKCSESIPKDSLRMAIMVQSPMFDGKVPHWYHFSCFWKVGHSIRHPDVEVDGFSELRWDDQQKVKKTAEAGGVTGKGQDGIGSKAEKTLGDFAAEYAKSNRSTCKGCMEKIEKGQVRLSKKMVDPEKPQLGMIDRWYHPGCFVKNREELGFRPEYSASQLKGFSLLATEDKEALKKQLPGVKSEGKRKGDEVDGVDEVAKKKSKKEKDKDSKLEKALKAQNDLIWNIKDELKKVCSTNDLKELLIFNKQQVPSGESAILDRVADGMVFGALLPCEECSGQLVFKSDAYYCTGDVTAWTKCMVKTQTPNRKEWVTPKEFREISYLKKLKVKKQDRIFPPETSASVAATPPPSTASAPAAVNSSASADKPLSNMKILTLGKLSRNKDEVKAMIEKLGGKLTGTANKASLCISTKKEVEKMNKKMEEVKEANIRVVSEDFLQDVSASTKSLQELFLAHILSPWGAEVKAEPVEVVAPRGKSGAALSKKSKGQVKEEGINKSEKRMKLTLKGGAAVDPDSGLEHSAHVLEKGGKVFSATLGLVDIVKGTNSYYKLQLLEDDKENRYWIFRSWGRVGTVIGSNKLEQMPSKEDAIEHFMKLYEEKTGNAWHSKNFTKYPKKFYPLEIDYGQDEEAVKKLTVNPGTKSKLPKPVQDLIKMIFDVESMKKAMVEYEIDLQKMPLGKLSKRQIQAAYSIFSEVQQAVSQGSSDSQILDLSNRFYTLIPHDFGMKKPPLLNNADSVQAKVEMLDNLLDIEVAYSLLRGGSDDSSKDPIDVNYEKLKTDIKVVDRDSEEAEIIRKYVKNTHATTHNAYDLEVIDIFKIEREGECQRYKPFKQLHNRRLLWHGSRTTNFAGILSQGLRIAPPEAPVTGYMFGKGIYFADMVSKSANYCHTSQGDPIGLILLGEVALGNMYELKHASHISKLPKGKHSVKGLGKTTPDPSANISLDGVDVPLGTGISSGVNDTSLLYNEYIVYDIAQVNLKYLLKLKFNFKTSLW

The structures appear in SMILES notation.

As to `Cn1ncnc1[C@H]1c2n[nH]c(=O)c3cc(F)cc(c23)N[C@@H]1c1ccc(F)cc1` [talazoparib], the EC50 entry is “Notably, talazoparib was the most potent binder and trapper followed by olaparib and niraparib”.

(Values after PMC11624193, “Coupling cellular drug-target engagement to downstream pharmacology with CeTEAM” (Nature Communications, 2024).)
